Measured values published in PubChem BioAssay AID1347075 (National Center for Advancing Translational Sciences (NCATS), 2019).
The list shows a part of the results, in another mix than the full data. Inconclusive results are not listed. Calls of active or inactive are those of the source. Calls follow the shape of the dose curve; as a rule, active = well fitted cell-killing curve with a large enough effect; inconclusive = small, poorly fitted or top-dose-only effect, or effect the other way; inactive = flat fitted curve, though single readings scatter.

assay: qHTS assay for MDR1-selective chemotherapeutics: Primary screen using the parental adenocarcinoma cell KB-3-1; conditions: KB-3-1 viability, CellTiter-Glo ATP luminescence, 72 h; at 46.1 µM (top of the series); also: nearly all actives have a fitted effect of over 60% in size
Outline: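 Parental KB-3-1 adenocarcinoma cells in phenol-red-free DMEM with 10% FBS were pin-treated with compounds at several concentrations, incubated 72 h at 37 °C, and viability read by CellTiter-Glo luminescence; concentration-effect curves were fitted after normalization.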
% is scaled to controls: 0 for no effect and ±100 for the full control effect.

Row | Compound | activity change, negative = cytotoxic
1 | COc1ccc(C(=O)NCC2(N3CCOCC3)CCCCC2)cc1OC | inactive: -1.75%
2 | O=c1[nH]c2ccccc2n1C1CCN(C(c2ccnc3ccccc23)c2nnnn2C2CCCC2)CC1 (configuration not stated) | inactive: 0.0287%
3 | O=c1[nH]c2ccccc2n1C1CCN(C(c2cccs2)c2nnnn2C2CCCCC2)CC1 (configuration not stated) | inactive: -1.66%
4 | O=Cc1ccc(N(CCCl)CCCl)cc1 | inactive: 13.4%
5 | O=C(NCC1(N2CCOCC2)CCCCC1)c1cc(Br)ccc1Cl | inactive: -32.8%
6 | CCCCn1nnnc1C(c1ccccc1)N1CCC(n2c(=O)[nH]c3ccccc32)CC1 (configuration not stated) | inactive: 0.0564%
7 | COc1cc(C(=O)NCC2(N3CCOCC3)CCCCC2)cc(OC)c1C | inactive: -1.03%
8 | CCCCn1nnnc1C(c1cccc(OC)c1OC)N1CCC(n2c(=O)[nH]c3ccccc32)CC1 (configuration not stated) | inactive: -11.6%
9 | O=C(OC1CN2CCC1CC2)C1c2ccccc2C=Cc2ccccc21 (configuration not stated) | inactive: -19.7%
10 | O=c1[nH]c2ccccc2n1C1CCN(C(c2cccs2)c2nnnn2C2CCCC2)CC1 (configuration not stated) | inactive: -0.0173%
11 | O=C(O)c1cccc(Nc2c([N+](=O)[O-])cc([N+](=O)[O-])cc2[N+](=O)[O-])c1 | inactive: 0.129%
12 | N/C(=N\O)c1c(N)no[n+]1[O-] | inactive: 21.5%
13 | CCOC(=O)N1CCC(Nc2ccc(C)cc2)CC1 | inactive: -12%
14 | COc1cccc(C(c2nnnn2C(C)(C)C)N2CCC(n3c(=O)[nH]c4ccccc43)CC2)c1OC (configuration not stated) | inactive: -1.34%
15 | CCOC(=O)C(CC)C1=NC(C)(C)Cc2ccccc21.O=[N+]([O-])c1cc([N+](=O)[O-])c(O)c([N+](=O)[O-])c1 (configuration not stated) | inactive: 16.3%
16 | CC(C)(C)OC(=O)N1CCC(N(C(=O)c2ccccc2)c2ccc(Cl)cc2)CC1 | inactive: -0.801%
17 | O=C(NCC1(N2CCOCC2)CCCCC1)c1ccc([N+](=O)[O-])cc1 | inactive: 10.2%
18 | O=C(NCC1(N2CCOCC2)CCCCC1)c1ccccc1[N+](=O)[O-] | inactive: -28.3%
19 | N#Cc1ccc(C(=O)NCC2(N3CCCCC3)CCCCC2)cc1 | inactive: -3.84%
20 | c1ccc(CN2CCC(Nc3ccccc3)CC2)cc1 | inactive: -4.88%
21 | CCCN1CCC(Nc2cc(OC)cc(OC)c2)CC1 | inactive: 6.5%
22 | O=c1[nH]c2ccccc2n1C1CCN(C(c2ccccc2)c2nnnn2C2CCCC2)CC1 (configuration not stated) | inactive: -8.54%
23 | O=C(NCC1(N2CCOCC2)CCCCC1)c1ccccc1 | inactive: -0.0592%
24 | CN(C)C1(CNC(=O)c2cccc(C#N)c2)CCCCC1 | inactive: 0.0836%
25 | Cc1ccc(NC2(C#N)CCN(Cc3ccccc3)CC2)cc1 | inactive: -11.3%
26 | Cc1ccc(C(=O)NCC2(N3CCCCC3)CCCCC2)o1 | inactive: -1.19%

Row | Compound | activity change, negative = cytotoxic
27 | Fc1ccccc1NC1CCN(Cc2ccccc2)CC1 | inactive: 3.29%
28 | COc1cc(OC)cc(C(=O)NCC2(N3CCCCC3)CCCCC2)c1 | inactive: -13.1%
29 | CN(C)C1(CNC(=O)c2ccc(C(C)(C)C)cc2)CCCCC1 | inactive: -9.34%
30 | CC(=O)N(c1ccccc1)C1CCNCC1 | inactive: -12.8%
31 | CCC(c1nnnn1C1CCCCC1)N1CCC(n2c(=O)[nH]c3ccccc32)CC1 (configuration not stated) | inactive: 0.0194%
32 | O=C(NCC1(N2CCCCC2)CCCCC1)c1ccco1 | inactive: -5.82%
33 | CC(C)(C)c1ccc(C(=O)NCC2(N3CCOCC3)CCCCC2)cc1 | inactive: 1.56%
34 | CN(C)c1ccc(C(=O)NCC2(N3CCCCC3)CCCCC2)cc1 | inactive: -3.08%
35 | Cn1c(=O)[nH]cc(N(CCCl)CCCl)c1=O | inactive: -14.9%
36 | Cc1ccccc1C(=O)NCC1(N(C)C)CCCCC1 | inactive: -2.95%
37 | Cc1ccccc1NC1(C#N)CCN(Cc2ccccc2)CC1 | inactive: 4.41%
38 | CCN1CCC(Nc2cccc(F)c2)CC1 | inactive: 4.36%
39 | CC(C)(C)n1nnnc1C(c1ccnc2ccccc12)N1CCC(n2c(=O)[nH]c3ccccc32)CC1 (configuration not stated) | inactive: -0.049%
40 | ClCCN(CCCl)c1ccccc1 | inactive: 18.3%
41 | CC(C)(C)OC(=O)N1CCC(Nc2ccccc2)CC1 | inactive: -5.81%
42 | ClCCN(CCCl)c1ccc(C=C2C=CC=C2)cc1 | inactive: 9.25%
43 | NN(c1ccccc1)C1CCN(CCc2ccccc2)CC1 | inactive: 16.8%
44 | O=C(O)C1(Nc2ccccc2)CCN(Cc2ccccc2)CC1 | inactive: 3.75%
45 | CCOc1ncccc1C(=O)NCC1(N2CCOCC2)CCCCC1 | inactive: 1.1%
46 | CN1CCC(Nc2ccc(F)c(Cl)c2)CC1 | inactive: 1.11%
47 | CN1CCC(Nc2ccc(Cl)cc2)CC1 | inactive: 0.111%
48 | CCC(CO)(C(=O)OC1CN2CCC1CC2)c1ccccc1 (configuration not stated) | inactive: 2.79%
49 | COc1cccc(C(=O)N(c2cc(C)cc(C)c2)C2CCN(C(=O)OC(C)(C)C)CC2)c1 | inactive: -9.81%
50 | COc1cc(C(=O)NCC2(N3CCOCC3)CCCCC2)cc(OC)c1OC | inactive: 6.04%
51 | COc1cc(OC)cc(C(=O)NCC2(N3CCOCC3)CCCCC2)c1 | inactive: 15.1%
52 | COc1cccc(C(c2nnnn2C2CCCC2)N2CCC(n3c(=O)[nH]c4ccccc43)CC2)c1OC (configuration not stated) | inactive: -9.93%
